Biological target: human NK2 receptor (Homo sapiens, UniProt P21452)
Assay: Neurokinin A (NKA) Receptor-binding Assay (Test A)
Conditions: 3H-NKA binding; human NK2 receptor expressed in Mouse Erythroleukemia (MEL) cells; initial use of assay
Source text: Neurokinin A (NKA) Receptor-binding Assay (Test A)

Chains of the proteins cited; added tags and fusions are not shown.
UniProt P21452, whole entry: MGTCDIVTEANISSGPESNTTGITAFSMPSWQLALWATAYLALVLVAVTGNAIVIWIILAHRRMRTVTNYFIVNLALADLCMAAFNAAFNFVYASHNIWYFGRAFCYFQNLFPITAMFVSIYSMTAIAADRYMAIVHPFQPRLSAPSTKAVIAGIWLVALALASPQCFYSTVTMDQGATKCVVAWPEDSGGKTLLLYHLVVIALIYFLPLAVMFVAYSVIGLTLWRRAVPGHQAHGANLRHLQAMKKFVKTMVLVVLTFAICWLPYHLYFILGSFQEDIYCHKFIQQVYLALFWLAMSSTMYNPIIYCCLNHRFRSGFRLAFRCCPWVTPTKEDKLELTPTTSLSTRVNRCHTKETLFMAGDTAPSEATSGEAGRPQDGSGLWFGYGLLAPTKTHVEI

IC50: 30 nM
Structure (SMILES): CSCC[C@@H]1NC(=O)[C@H](CC(C)C)NC(=O)CNC(=O)[C@H](Cc2ccccc2)NC(=O)[C@H](Cc2c[nH]c3ccccc23)NC(=O)[C@H](CCC(N)=O)NC1=O
